Experiments:
Assay type in all cases: binding
[1] = target: T1, BRD4 BD1 L/V (Homo sapiens, UniProt O60885, L94V); test: competitive AlphaLISA; conditions: total compound concentration; for ΔpIC50 BRD4 BD1: L/V minus WT
[2] = target: T2, BRD4 BD1 WT (Homo sapiens, UniProt O60885); test: competitive AlphaLISA; conditions: separated enantiomers test; total compound concentration
[3] = target: T1, BRD4 BD1 L/V; test: ITC; conditions: read-out: Kd BRD4 BD1 L/V; ITC of separated enantiomers and racemates; total compound concentration
[4] = target: T2, BRD4 BD1 WT; test: ITC; conditions: read-out: Kd BRD4 BD1 WT; ITC of separated enantiomers; total compound concentration

SMILES | ΔpIC50 BRD4 BD1 [1] | pIC50 BRD4 BD1 L/V ([1]; separated enantiomers test) | pIC50 BRD4 BD1 WT [2] | Kd [3] [µM] | Kd [4] [µM]
CC[C@H](C(=O)OC)[C@H]1N=C(c2ccc(Cl)cc2)c2ccc(OC)cc2-n2c(C)nnc21 | 0.4 | 5.0 | 4.6 | > 60 | > 60
COC(=O)[C@@H](C)[C@H]1N=C(c2ccc(Cl)cc2)c2ccc(OC)cc2-n2c(C)nnc21 | 1.4 |  | 4.2 | > 60 | > 60

Reference: paper PMC5909127, “Optimization of a “bump-and-hole” approach to allele-selective BET bromodomain inhibition” (Chemical Science, 2018)
